Consider 1 molecule from patent US9169209B2, “Compounds and compositions for the inhibition of NAMPT” (FORMA TM, LLC, priority 2011, dated 2015).

This assay deals with A2780 cells. Nature of the assay: In-Vitro Cell Proliferation Assay (SRB, 72 hours). Format: cell-based. To be noted: read-out: A2780 IC50, sulforhodamine B.

A word on the IC50: it is the concentration that inhibits the measured activity by half. With `O=C(/C=C/c1cccnc1)Nc1ccc(S(=O)(=O)c2cccnc2N2CCOCC2)cc1`, the half-inhibitory concentration (IC50) lay in the range of 100 to 1000 nM.
